Source: the kinase profiling compilation of Christmann-Franck et al. (2016)

Amino acid sequences for entries named in this document (tags omitted). A change or cut given only in a name is not applied to a line headed by its entry.
UniProt Q92630: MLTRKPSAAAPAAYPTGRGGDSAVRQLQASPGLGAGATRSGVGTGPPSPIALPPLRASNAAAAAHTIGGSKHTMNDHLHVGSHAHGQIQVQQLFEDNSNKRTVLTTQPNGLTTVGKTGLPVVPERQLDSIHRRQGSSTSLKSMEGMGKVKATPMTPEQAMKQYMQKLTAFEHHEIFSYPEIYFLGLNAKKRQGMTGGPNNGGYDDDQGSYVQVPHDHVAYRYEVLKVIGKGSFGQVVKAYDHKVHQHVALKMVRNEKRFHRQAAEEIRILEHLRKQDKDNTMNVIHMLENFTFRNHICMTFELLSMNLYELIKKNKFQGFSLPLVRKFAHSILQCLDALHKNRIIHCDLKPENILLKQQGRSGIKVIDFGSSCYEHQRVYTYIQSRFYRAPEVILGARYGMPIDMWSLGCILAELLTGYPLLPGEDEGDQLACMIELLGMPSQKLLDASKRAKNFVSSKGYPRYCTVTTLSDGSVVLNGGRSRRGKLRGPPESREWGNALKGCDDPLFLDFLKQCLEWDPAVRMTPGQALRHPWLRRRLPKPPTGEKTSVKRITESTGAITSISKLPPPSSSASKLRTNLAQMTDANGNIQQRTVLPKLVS
UniProt Q9Y3S1: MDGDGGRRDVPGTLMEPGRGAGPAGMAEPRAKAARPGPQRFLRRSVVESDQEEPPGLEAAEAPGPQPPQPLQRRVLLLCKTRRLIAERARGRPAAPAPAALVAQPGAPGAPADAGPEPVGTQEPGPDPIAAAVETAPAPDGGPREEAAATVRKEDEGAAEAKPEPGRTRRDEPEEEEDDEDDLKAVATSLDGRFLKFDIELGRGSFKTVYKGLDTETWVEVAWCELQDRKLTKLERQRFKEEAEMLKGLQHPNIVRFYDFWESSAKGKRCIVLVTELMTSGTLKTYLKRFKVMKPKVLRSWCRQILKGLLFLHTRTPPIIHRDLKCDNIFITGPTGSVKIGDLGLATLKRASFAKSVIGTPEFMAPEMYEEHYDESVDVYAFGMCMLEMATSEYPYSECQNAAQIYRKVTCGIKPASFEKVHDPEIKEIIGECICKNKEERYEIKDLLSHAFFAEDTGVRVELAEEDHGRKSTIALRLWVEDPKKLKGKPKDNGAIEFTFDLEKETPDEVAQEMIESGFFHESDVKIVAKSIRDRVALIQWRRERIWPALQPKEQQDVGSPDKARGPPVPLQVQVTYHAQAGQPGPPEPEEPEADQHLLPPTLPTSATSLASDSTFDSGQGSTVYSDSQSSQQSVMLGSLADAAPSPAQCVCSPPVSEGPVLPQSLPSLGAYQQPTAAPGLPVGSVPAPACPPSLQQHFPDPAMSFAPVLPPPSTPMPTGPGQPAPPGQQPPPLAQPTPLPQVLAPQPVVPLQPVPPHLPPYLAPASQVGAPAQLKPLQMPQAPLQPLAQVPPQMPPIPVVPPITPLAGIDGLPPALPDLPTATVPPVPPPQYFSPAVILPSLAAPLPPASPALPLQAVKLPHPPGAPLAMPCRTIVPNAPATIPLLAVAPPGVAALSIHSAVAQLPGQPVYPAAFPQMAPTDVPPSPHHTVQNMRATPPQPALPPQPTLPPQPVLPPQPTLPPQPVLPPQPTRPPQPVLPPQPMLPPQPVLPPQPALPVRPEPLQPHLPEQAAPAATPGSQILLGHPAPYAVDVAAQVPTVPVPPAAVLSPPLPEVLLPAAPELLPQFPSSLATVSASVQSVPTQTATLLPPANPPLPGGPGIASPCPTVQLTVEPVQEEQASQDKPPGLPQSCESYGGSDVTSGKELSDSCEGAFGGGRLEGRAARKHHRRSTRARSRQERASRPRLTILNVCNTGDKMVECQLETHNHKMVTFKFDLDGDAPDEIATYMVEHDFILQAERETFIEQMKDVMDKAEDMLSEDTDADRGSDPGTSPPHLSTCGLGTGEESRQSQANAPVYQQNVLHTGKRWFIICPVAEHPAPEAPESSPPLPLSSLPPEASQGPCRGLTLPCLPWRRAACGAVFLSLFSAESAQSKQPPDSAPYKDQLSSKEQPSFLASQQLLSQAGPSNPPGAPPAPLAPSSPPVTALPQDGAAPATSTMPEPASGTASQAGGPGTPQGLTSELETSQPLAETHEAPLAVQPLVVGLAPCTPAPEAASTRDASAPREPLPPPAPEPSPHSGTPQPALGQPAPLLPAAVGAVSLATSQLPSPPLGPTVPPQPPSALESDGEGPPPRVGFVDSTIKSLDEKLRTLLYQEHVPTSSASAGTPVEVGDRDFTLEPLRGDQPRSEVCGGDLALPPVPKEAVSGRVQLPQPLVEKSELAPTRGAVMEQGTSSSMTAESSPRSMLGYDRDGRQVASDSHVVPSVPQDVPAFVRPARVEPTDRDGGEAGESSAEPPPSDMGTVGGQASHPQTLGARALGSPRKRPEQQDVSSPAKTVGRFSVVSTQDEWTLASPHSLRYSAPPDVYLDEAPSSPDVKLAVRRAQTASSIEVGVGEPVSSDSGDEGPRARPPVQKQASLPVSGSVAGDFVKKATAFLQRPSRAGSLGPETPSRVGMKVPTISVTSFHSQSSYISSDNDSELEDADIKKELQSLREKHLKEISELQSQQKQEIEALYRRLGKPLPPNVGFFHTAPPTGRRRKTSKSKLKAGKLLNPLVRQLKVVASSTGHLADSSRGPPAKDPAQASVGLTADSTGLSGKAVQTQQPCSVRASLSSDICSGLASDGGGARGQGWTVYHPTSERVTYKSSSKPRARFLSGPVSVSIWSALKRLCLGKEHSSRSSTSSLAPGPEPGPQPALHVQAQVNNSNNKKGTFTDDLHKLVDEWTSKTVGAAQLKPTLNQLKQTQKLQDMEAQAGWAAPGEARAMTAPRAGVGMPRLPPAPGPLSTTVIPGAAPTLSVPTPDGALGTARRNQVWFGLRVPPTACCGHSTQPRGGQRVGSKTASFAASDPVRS
UniProt Q06418: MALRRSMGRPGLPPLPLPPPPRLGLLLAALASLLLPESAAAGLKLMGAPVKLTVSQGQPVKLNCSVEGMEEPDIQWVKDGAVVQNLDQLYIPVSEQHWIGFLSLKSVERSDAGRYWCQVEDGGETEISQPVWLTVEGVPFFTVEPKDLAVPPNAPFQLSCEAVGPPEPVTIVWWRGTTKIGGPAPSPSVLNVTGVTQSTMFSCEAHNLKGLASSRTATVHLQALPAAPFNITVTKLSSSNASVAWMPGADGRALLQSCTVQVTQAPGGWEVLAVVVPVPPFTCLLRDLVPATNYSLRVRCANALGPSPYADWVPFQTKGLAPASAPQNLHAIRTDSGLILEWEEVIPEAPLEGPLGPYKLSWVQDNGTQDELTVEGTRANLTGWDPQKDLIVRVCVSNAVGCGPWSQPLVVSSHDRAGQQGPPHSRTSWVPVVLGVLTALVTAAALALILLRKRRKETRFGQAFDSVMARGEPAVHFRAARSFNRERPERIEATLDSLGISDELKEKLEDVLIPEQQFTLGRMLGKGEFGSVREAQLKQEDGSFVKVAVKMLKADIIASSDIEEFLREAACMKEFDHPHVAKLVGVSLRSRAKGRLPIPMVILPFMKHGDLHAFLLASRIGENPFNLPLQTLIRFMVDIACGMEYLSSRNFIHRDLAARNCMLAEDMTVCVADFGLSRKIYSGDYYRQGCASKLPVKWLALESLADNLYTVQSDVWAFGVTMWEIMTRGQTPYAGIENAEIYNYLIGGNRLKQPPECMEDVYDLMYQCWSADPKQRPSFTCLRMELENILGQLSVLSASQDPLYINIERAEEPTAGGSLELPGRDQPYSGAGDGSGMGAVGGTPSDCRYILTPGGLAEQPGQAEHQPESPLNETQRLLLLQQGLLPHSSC
UniProt Q05655: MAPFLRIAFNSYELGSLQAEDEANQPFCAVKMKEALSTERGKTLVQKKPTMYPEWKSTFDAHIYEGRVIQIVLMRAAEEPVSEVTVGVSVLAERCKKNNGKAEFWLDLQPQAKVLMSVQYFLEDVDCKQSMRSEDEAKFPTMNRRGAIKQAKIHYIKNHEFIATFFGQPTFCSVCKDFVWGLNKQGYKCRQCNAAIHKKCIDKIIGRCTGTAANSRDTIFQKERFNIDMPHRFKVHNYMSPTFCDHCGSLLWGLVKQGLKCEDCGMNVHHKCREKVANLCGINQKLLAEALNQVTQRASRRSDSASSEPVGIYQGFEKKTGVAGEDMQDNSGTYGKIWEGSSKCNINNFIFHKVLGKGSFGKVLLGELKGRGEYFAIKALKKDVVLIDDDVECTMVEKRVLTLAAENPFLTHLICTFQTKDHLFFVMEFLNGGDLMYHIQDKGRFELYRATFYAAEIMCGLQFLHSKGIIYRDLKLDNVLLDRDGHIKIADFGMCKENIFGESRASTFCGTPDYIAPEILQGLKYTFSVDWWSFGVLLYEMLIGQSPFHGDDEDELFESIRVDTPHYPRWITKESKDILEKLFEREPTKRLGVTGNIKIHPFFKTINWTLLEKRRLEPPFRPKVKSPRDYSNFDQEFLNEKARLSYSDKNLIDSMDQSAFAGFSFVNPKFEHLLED
UniProt Q15759, whole entry, looked up: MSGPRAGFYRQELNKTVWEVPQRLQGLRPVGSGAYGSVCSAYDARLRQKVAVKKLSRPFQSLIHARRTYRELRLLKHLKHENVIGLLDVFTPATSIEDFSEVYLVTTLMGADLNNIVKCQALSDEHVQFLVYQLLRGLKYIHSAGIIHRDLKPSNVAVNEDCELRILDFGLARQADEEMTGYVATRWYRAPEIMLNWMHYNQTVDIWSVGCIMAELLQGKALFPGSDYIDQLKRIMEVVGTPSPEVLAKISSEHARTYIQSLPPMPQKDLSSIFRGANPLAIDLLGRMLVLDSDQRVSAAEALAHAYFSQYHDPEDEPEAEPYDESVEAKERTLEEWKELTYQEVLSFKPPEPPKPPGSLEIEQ
UniProt P35968, whole entry, looked up: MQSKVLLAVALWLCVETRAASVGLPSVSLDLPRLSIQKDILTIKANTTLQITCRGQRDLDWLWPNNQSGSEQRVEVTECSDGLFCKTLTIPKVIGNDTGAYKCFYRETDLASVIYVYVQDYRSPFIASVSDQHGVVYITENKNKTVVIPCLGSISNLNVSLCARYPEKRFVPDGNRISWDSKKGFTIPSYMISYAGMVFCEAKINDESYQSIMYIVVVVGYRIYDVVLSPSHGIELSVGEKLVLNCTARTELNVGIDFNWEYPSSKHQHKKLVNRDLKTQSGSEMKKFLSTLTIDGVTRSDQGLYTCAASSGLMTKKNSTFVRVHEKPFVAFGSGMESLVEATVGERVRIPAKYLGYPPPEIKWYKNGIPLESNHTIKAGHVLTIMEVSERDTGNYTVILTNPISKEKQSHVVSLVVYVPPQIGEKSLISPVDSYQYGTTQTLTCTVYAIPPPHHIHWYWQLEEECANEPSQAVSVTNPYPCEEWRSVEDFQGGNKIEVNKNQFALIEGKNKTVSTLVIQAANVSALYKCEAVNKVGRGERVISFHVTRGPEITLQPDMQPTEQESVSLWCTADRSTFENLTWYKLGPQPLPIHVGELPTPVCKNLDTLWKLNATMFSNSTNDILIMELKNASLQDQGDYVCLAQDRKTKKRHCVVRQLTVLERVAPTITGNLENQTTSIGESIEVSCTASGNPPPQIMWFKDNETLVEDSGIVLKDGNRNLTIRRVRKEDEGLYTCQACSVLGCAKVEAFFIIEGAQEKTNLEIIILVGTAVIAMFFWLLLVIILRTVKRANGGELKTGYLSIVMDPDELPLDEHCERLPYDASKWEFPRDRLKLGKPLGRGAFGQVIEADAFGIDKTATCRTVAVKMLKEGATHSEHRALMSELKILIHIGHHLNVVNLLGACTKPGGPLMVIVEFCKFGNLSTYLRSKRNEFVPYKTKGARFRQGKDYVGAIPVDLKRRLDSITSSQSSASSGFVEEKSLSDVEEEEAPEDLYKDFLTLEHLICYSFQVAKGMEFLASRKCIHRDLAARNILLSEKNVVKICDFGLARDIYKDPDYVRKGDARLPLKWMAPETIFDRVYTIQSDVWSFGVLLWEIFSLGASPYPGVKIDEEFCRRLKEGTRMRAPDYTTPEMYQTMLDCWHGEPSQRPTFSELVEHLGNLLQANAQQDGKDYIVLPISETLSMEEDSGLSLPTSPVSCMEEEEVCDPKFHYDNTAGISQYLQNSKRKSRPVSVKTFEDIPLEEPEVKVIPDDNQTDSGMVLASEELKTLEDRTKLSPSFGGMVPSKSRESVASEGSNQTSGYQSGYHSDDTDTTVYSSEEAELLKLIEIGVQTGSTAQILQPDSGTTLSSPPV
UniProt P78368: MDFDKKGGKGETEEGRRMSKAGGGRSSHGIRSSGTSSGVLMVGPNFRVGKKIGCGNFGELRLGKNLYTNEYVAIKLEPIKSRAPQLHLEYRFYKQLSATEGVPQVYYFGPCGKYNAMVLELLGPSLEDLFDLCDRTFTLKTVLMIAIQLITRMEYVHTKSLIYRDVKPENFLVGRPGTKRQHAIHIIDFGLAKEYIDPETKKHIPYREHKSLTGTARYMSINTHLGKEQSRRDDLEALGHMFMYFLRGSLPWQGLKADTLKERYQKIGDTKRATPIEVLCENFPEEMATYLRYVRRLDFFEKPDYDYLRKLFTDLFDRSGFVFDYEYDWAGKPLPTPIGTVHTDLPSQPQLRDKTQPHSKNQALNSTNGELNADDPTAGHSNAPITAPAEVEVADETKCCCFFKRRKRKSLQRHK

Assays:
Experiment in all cases: radiometric filter-binding kinase assay, Kinase HotSpot
Details in all cases: compound 0.5 µM; ATP 10 µM
[1] = target: DYRK2 (human) (UniProt Q92630)
[2] = target: PAK1 (human) (UniProt Q13153)
[3] = target: MAPKAPK2 (human) (UniProt P49137)
[4] = target: SGK2 (human) (UniProt Q9HBY8)
[5] = target: ERBB2 (human) (UniProt P04626)
[6] = target: EPHB3 (human) (UniProt P54753)
[7] = target: JAK3 JH1 JH2 (human) (UniProt P52333)
[8] = target: RPS6KA4 KD2 (human) (UniProt O75676)
[9] = target: MAP2K2 (human) (UniProt P36507)
[10] = target: RPS6KA5 KD2 (human) (UniProt O75582)
[11] = target: MST1R (human) (UniProt Q04912)
[12] = target: NUAK2 (human) (UniProt Q9H093)
[13] = target: CAMK1D (human) (UniProt Q8IU85)
[14] = target: PBK (human) (UniProt Q96KB5)
[15] = target: WNK2 (human) (UniProt Q9Y3S1)
[16] = target: YES1 (human) (UniProt P07947)
[17] = target: SRMS (human) (UniProt Q9H3Y6)
[18] = target: DAPK1 (human) (UniProt P53355)
[19] = target: CSNK2A2 (human) (UniProt P19784)
[20] = target: TYRO3 (human) (UniProt Q06418)
[21] = target: HIPK2 (human) (UniProt Q9H2X6)
[22] = target: ACVR1 (human) (UniProt Q04771)
[23] = target: ALK (human) (UniProt Q9UM73)
[24] = target: FRK (human) (UniProt P42685)
[25] = target: PRKCE (human) (UniProt Q02156)
[26] = target: JAK1 JH1 catalytic (human) (UniProt P23458)
[27] = target: PAK6 (human) (UniProt Q9NQU5)
[28] = target: PDGFRA (human) (UniProt P16234)
[29] = target: EPHA4 (human) (UniProt P54764)
[30] = target: HIPK1 (human) (UniProt Q86Z02)
[31] = target: PRKCD (human) (UniProt Q05655)
[32] = target: BLK (human) (UniProt P51451)
[33] = target: MAPK11 (human) (UniProt Q15759)
[34] = target: KDR (human) (UniProt P35968)
[35] = target: DMPK (human) (UniProt Q09013)
[36] = target: NEK3 (human) (UniProt P51956)
[37] = target: ULK1 (human) (UniProt O75385)
[38] = target: PRKX (human) (UniProt P51817)
[39] = target: BRAF (human) (UniProt P15056)
[40] = target: MAP3K10 (human) (UniProt Q02779)
[41] = target: ULK2 (human) (UniProt Q8IYT8)
[42] = target: CSNK1G2 (human) (UniProt P78368)

`O=C1c2ccccc2-[n+]2ccc3c([nH]c4ccccc43)c21` was tested, and the residual activity [1] was 107%, the residual activity [2] was 90.8% and the residual activity [3] was 105%. The residual activity [4] was 95.8%, the residual activity [5] was 94.2% and the residual activity [6] was 90.9%. For the same molecule, the residual activity [7] was 89%, the residual activity [8] was 90.6% and the residual activity [9] was 91.3%. It also gave a residual activity [10] of 94.3%, a residual activity [11] of 101% and a residual activity [12] of 109%. The residual activity [13] was 83.4%, the residual activity [14] was 94.2% and the residual activity [15] was 102%. For the same molecule, the residual activity [16] was 93.1%, the residual activity [17] was 89.5% and the residual activity [18] was 101%. The residual activity [19] was 92.6%, the residual activity [20] was 81.1% and the residual activity [21] was 97.9%. It also gave a residual activity [22] of 102%, a residual activity [23] of 94.6% and a residual activity [24] of 99.1%. It also gave a residual activity [25] of 93.7%, a residual activity [26] of 96.8% and a residual activity [27] of 105%. The residual activity [28] was 97.4%, the residual activity [29] was 95.6% and the residual activity [30] was 98.2%. The residual activity [31] was 89.6%, the residual activity [32] was 99.2% and the residual activity [33] was 100%. For the same molecule, the residual activity [34] was 80.9%, the residual activity [35] was 126% and the residual activity [36] was 102%. It also gave a residual activity [37] of 108%, a residual activity [38] of 101% and a residual activity [39] of 95.7%. For the same molecule, the residual activity [40] was 102%, the residual activity [41] was 123% and the residual activity [42] was 110%.

Molecule `COc1cc(OC)c(/C=C2\C(=O)Nc3ccccc32)c(OC)c1` has a residual activity [1] of 98%, a residual activity [2] of 94.1% and a residual activity [3] of 103%. The residual activity [4] was 102%, the residual activity [5] was 94.6% and the residual activity [6] was 89.8%. It also gave a residual activity [7] of 93.6%, a residual activity [8] of 99.7% and a residual activity [9] of 96.2%. It also gave a residual activity [10] of 92.1%, a residual activity [11] of 98.8% and a residual activity [12] of 109%. The residual activity [13] was 94.5%, the residual activity [14] was 110% and the residual activity [15] was 98.6%. For the same molecule, the residual activity [16] was 91.7%, the residual activity [17] was 97.7% and the residual activity [18] was 99.3%. The residual activity [19] was 99%, the residual activity [20] was 90.5% and the residual activity [21] was 102%. The residual activity [22] was 110%, the residual activity [23] was 95.3% and the residual activity [24] was 94.8%. For the same molecule, the residual activity [25] was 95.5%, the residual activity [26] was 105% and the residual activity [27] was 96.6%. It also gave a residual activity [28] of 95.2%, a residual activity [29] of 98.6% and a residual activity [30] of 112%. It also gave a residual activity [31] of 87.8%, a residual activity [32] of 106% and a residual activity [33] of 98.4%. It also gave a residual activity [34] of 105%, a residual activity [35] of 104% and a residual activity [36] of 114%. For the same molecule, the residual activity [37] was 91.4%, the residual activity [38] was 103% and the residual activity [39] was 98.3%. It also gave a residual activity [40] of 100%, a residual activity [41] of 103% and a residual activity [42] of 95.2%.
